Test results: patent US4382892A, “Benzoxazine derivatives” (Daiichi Seiyaku Co., Ltd., priority 1980, dated 1983)

Test: in vivo
Settings: mouse, iv

CCn1cc(C(=O)O)c(=O)c2cnc(N3CCNCC3)nc21 [PPA, 8-ethyl-5,8-dihydro-5-oxo-2-(1-piperazinyl)-pyrido[2,3-d]pyrimidine-6-carboxylic acid, reference compound]
LD50: 610 to 649 mg/kg
